ChEMBL document CHEMBL4002601, “A triple exon-skipping luciferase reporter assay identifies a new CLK inhibitor pharmacophore” (Bioorg Med Chem Lett, 2017)

By UniProt entry, the sequences of proteins in these tests, tags left out. Where a name states a change or a piece, a line headed by the entry shows the natural chain unless it says otherwise.
UniProt P49759: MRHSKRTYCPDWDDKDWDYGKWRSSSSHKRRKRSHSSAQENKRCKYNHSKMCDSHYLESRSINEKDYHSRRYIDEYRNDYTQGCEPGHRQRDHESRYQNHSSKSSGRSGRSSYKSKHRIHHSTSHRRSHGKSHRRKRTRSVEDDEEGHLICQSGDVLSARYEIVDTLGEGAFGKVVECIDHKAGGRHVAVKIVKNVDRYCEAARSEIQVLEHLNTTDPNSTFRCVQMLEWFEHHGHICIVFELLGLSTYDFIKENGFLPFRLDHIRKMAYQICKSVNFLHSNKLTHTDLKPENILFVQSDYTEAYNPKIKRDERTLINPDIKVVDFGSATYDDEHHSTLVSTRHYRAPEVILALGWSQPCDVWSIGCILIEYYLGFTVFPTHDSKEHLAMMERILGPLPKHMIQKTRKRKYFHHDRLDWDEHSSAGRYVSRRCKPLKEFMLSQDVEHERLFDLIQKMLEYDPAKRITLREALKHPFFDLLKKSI
UniProt O70551, whole entry: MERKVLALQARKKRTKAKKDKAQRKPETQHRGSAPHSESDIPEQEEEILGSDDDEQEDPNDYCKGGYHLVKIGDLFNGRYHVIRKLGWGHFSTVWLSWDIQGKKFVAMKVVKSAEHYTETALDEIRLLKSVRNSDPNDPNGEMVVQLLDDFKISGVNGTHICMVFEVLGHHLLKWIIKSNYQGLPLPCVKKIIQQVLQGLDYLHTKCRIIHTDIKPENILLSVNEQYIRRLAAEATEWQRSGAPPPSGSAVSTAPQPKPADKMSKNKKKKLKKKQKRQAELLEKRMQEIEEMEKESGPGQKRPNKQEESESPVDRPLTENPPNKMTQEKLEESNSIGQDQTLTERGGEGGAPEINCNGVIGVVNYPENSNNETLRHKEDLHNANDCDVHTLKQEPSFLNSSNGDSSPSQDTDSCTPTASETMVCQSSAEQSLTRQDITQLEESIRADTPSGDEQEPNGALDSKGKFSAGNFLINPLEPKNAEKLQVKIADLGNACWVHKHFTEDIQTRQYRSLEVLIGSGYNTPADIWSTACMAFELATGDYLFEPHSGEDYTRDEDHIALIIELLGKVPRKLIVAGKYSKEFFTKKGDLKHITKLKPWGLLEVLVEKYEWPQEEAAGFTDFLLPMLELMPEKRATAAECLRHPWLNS

How the values were obtained:
[1] = target: Dual specificity protein kinase CLK1 (Homo sapiens, UniProt P49759); experiment: Inhibition of CLK mediated SF3B1 activation in human SK-MEL-2 cells assessed as MDM2-pre mRNA exon skipping at 10 uM after 4 hrs by luciferase reporter gene assay relative to control; type: cell-based
SRSF protein kinase 1 = SRSF protein kinase 1 (Mus musculus, UniProt O70551); experiment: Inhibition of mouse His6-tagged SRPK1 expressed in Escherichia coli(BL21)

inhibition [1] | Ki (SRSF protein kinase 1) [nM] | SMILES
inactive |  | COCCNc1nc(Nc2cccc(Cl)c2)c2ncn(C(C)C)c2n1
inactive |  | CCn1cnc2c(Nc3cccc(Cl)c3)nc(N[C@@H]3CCCC[C@@H]3NC(C)=O)nc21 (racemic)
 | 890 | O=C(Nc1cc(C(F)(F)F)ccc1N1CCCCC1)c1ccncc1

The source made the active and inactive calls. No cut-off for these calls is given here.
